Laboratory results: patent US11690911B2, “Combination of ATR kinase inhibitors and PD-1/PD-L1 inhibitors” (Bayer Pharma Aktiengesellschaft, priority 2017, dated 2023)

Tests used:
Details in all cases: mouse, in vivo
[1] = tested on: murine syngeneic colon carcinoma model MC38; experiment: Anti-tumor activity in murine syngeneic colon carcinoma model MC38 (study 2)
[2] = tested on: murine syngeneic lymphoma model A20; experiment: Anti-tumor activity in murine syngeneic lymphoma model A20
[3] = tested on: murine syngeneic lung carcinoma model KLN205; experiment: Anti-tumor activity in murine syngeneic lung carcinoma model KLN205
[4] = tested on: murine syngeneic colon carcinoma model MC38; experiment: Anti-tumor activity in murine syngeneic colon carcinoma model MC38 (study 1)
[5] = tested on: murine syngeneic colon carcinoma model CT26; experiment: Anti-tumor activity in murine syngeneic colon carcinoma model CT26

`C[C@@H]1COCCN1c1cc(-c2ccnn2C)c2ccnc(-c3ccn[nH]3)c2n1` [Compound A, 2-[(3R)-3-methylmorpholin-4-yl]-4-(1-methyl-1H-pyrazol-5-yl)-8-(1H-pyrazol-5-yl)-1,7-naphthyridine] was tested. Which T/C [1] did it give?
Its T/C is 0.46*.

What about the “anti-tumor efficacy (in words)” value [1] of the same compound?
Its value is “moderate anti-tumor efficacy”.

And the T/C [2]?
Its T/C is 0.38.

What about the “anti-tumor efficacy (in words)” value [2] of the same compound?
The value was “moderate anti-tumor efficacy”.

And the T/C [3]?
Its T/C is 0.36*.

And the “anti-tumor efficacy (in words)” value [3]?
The value was “moderate anti-tumor efficacy”.

What about the T/C [4] of the same compound?
Its T/C is 0.10*.

And the “anti-tumor efficacy (in words)” value [4]?
Its value is “good anti-tumor efficacy”.

What about the T/C [5] of the same compound?
Its T/C is 0.50*.

What about the “anti-tumor efficacy (in words)” value [5] of the same compound?
Its value is “moderate anti-tumor efficacy”.

Marks after values point to notes of the source that are not given here.
